Laboratory results published in BindingDB's records for doi:10.1111/j.1747-0285.2009.00909.x (Queen's University, 2010).

Biological target: T1, Heme oxygenase 1 (Rattus norvegicus, UniProt P06762)
T1 sequence (P06762 whole entry): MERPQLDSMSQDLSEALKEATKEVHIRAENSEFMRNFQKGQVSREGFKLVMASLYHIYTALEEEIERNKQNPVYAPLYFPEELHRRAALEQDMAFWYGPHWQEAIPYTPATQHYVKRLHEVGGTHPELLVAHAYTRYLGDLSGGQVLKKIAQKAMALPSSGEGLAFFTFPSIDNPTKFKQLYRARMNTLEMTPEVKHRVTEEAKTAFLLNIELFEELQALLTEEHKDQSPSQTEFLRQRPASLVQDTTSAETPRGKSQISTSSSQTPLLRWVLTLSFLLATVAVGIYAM
Assay: Heme Oxygenase
Settings: pH 7.4; 25 °C
Protocol: Heme oxygenase activity in rat spleen and brain microsomal fractions was determined by the quantitation of CO formed from the degradation of methemalbumin (heme complexed with albumin). Spleen and brain (SpragueâDawley rats) microsomal fractions were prepared according to the procedure outlined by Appletonet al. Protein concentration of microsomal fractions was determined by a modification of the Biuret method. Incubations for HO activity analysis were performed under conditions for which the rate of CO formation [pmol CO â (min mg protein)] was linear with respect to time and microsomal protein concentration. […] […]

O=C(CCc1ccccc1)Cn1ccnc1
IC50: 4 mM
